Where “and” joins values, the source holds several entries; their conditions need not be identical. Identical values can stand only once.
Test system: HL-60 cells

O=C1[O][Pt]2([NH][C@@H]3CCCC[C@H]3[NH]2)[O]C1=O [OXA, Oxaliplatin, reference compound]
Reduction of the number of viable cells: 37.0% and 70.0%
